The list shows a part of the results, in another mix than the full data. Measured potencies and affinities stand elsewhere. Some of these compounds have results that are not shown, active ones among them. The source made the active and inactive calls.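 The calls were made as follows: active = displacement above 50% at 20 µM plus a fluorescence interference ratio under 1.5; inactive = the rest.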
Each compound was assayed against Bcl-2-like protein 10 (Homo sapiens) (UniProt Q9HD36) (assay: displacers of TR3 peptide from Bcl-B, primary screen, selectivity assay for Bfl-1 inhibitor project, biochemical, fluorescence polarization, FITC-TR3 peptide (AID 748;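 also: plate controls were wells without compound for no effect and wells lacking Bcl-B protein for full effect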)). Conditions: FP displacement of FITC-TR3 peptide from Bcl-B; at 20 µM; hits give high values.

Row | Structure (SMILES) | displacement
1 | O=C(OC1CN2CCC1CC2)C(CO)(c1ccccc1)c1ccccc1 (stereo not drawn) | inactive: -2.3%
2 | CN(C)c1cccc(C(=O)NCC2(N(C)C)CCCCC2)c1 | inactive: -3%
3 | CC(C)N1C(=O)CC2(CCN(CCOC(=O)C(O)(c3ccccc3)c3ccccc3)CC2)C1=O | inactive: 5%
